Results as given in patent US20240307333A1, “ANTI-VIRAL THERAPEUTIC AGENTS AND USES THEREOF” (priority 2021, published 2024).

Target: binding between SARS-CoV-2 Receptor Binding Domain (RBD) and Angiotensin Converting Enzyme 2 (ACE2) (Severe acute respiratory syndrome coronavirus 2, UniProt P0DTC2)
Assay: biochemical

O=S(=O)(O)CCS [sodium 2-mercaptoethane sulfonate]
IC50: 2700 µM
